The values below are quoted from earlier work in the PKSmart pharmacokinetics tables (Seal et al. 2025).

Data set [1] can be described thus: not given per row; by the article one of three: Lombardo et al. 2013, J Clin Pharmacol 53:178, doi 10.1177/0091270012440282; 'New Drugs at FDA', novel drug approvals for 2021 and 2022 (the article's reference 43); Yap, Li, Chen 2006, J Mol Graph Model 24:383, doi 10.1016. The conditions noted are these: human; in vivo.
Data set [2] in a line: Lombardo et al. 2013, J Clin Pharmacol 53:178, doi 10.1177/0091270012440282. Conditions: in vivo, iv.
Data set [3] can be described thus: Lombardo, Berellini, Obach 2018, Drug Metab Dispos 46:1466, doi 10.1124/dmd.118.082966. The conditions noted are these: human; in vivo; iv.

As for `CN(C)c1ccc(O)c2c1C[C@@H]1C[C@@H]3[C@@H](N(C)C)C(O)=C(C(N)=O)C(=O)[C@@]3(O)C(O)=C1C2=O`, the clearance (commonly the rate of elimination divided by the concentration) in data set [1] was 0.89 mL/min/kg.

With `Cn1c(=O)c2[nH]cnc2n(C)c1=O`, in data set [1], the clearance is 0.73 mL/min/kg.

On to `CC(NC(=O)N(CCCl)N=O)C(N)=O` (stereo not given), for which the Vd (as a rule, the apparent volume that relates the amount in the body to the concentration in plasma or blood) is 0.81 L/kg in data set [2] (dog) and 0.76 L/kg in data set [1]. Besides, the clearance in data set [1] is 9 mL/min/kg.

For `CC[C@]1(O)C(=O)OCc2c1cc1n(c2=O)Cc2cc3c(CN(C)C)c(O)ccc3nc2-1`, the clearance in data set [1] was 11.8 mL/min/kg.

On to `CC[C@@]1(O)C(=O)OCc2c1cc1n(c2=O)Cc2cc3c(CN(C)C)c(O)ccc3nc2-1`, for which, in data set [3], the MRT – broadly, the average time that molecules of a dose stay in the body – is 2.3 h and the half-life (as a rule, how long it takes for the measured level to halve) is 2.3 h. Besides, in data set [2] (dog), the Vd was 1.7 L/kg and the clearance is 17.6 mL/min/kg. In addition, in data set [2] (monkey), the Vd is 7.38 L/kg and the clearance is 96.1 mL/min/kg. In data set [2] (rat), the Vd is 3.08 L/kg and the clearance is 34.4 mL/min/kg.

On to `S=c1[nH]cnc2nc[nH]c12`, for which the clearance in data set [1] was 11 mL/min/kg.
